# Assay results published in US20090131702A1, “METHOD FOR THE PRODUCTION OF METAL CARBOXYLATES AND THE METAL AMINOATE OR METAL HYDROXY ANALOGUE METHIONATE DERIVATIVES THEREOF, AND USE OF SAME AS GROWTH PROMOTERS IN ANIMAL FEED” (NOREL, S.A., priority 2003, published 2009).
# Like-named read-outs stand apart in the source and are kept apart here.
# Legend:
# [1] = Test of efficacy in piglets: production parameters, copper glycinate / formate / complex (Example 15); assay type: in vivo; conditions: 21-42 days, 125 ppm of copper added to base diet
# [2] = Test in broilers: production parameters, copper methioninate / formate / complex (Example 13); assay type: in vivo, broilers of the Ross strain; conditions: 25 ppm of copper added to base diet
# Method: Four experimental treatments were used, comprising the same basic diet supplemented with different sources of copper:
# The dose of copper was calculated taking into account the copper content of the ingredients and the copper requirements in the case of treatments T-0 to T-3.
# (§1) Control of production parameters was effected at 21 and 42 days of age, recording the live weight and the consumption of feed per batch.
# [3] = broilers
# [4] = Test in broilers: production parameters, zinc methioninate / formate / complex (Example 12); assay type: in vivo, broilers of the Ross strain; conditions: 50 ppm of zinc added to base diet
# Source text: Four experimental treatments were used, comprising the same basic diet supplemented with different sources of zinc:
# as §1
Structure (SMILES),IC (index of conversion) [1] [a],IC (index of conversion) ([2]; 0-21 days) [a],IC (index of conversion) ([2]; 0-42 days) [a],IC (index of conversion) ([2]; 21-42 days) [a],"IC (index of conversion) ([3]; 0-21 days, 20 ppm of copper added to base diet) [a]","IC (index of conversion) ([3]; 0-21 days, 150 ppm of copper added to base diet) [b]","IC (index of conversion) ([3]; 0-42 days, 20 ppm of copper added to base diet) [a]","IC (index of conversion) ([3]; 0-42 days, 150 ppm of copper added to base diet) [b]","IC (index of conversion) ([3]; 21-42 days, 20 ppm of copper added to base diet) [a]","IC (index of conversion) ([3]; 21-42 days, 150 ppm of copper added to base diet) [b]",IC (index of conversion) ([4]; 0-21 days) [a],IC (index of conversion) ([4]; 0-42 days) [a],IC (index of conversion) ([4]; 21-42 days) [a]
O=S(=O)([O-])[O-].[Cu+2] [copper sulfate],2.10,1.43,1.99,2.23,1.43,1.38,1.94,1.80,2.16,2.01,,,
O=S(=O)([O-])[O-].[Zn+2] [zinc sulfate],,,,,,,,,,,1.40,1.90,2.12
